Experimental data as given in ChEMBL document CHEMBL3864129, “Polybrominated Diphenyl Ethers: Structure Determination and Trends in Antibacterial Activity” (J Nat Prod, 2016).

System: Escherichia coli
Assay: Antimicrobial activity against Escherichia coli ATCC 25922 by CLSI M07-A9 method
Format: functional
In short: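 Laboratory strains tested following CLSI guidelines. Each compound was run in duplicate in at least two independent experiments, and the MIC was recorded.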

## GENTAMICIN
  MIC: 0.5 mg/L
